In this assay the target is Full-length PRMT5 enzyme (NCBI Reference sequence NP_006100.2) co-expressed with His6-MEP50 (Homo sapiens (Human), UniProt O14744). The assay can be described thus: PRMT5 Biochemical Assay. To be noted: histone H4 derived peptide substrate 200 nM, 1 μM S-Adenosyl methionine, 4 hours at 37° C., Transcreener EPIGEN fluorescence polarisation. How it is done:
Compounds of the invention may be tested for in vitro activity in the following assay: A histone H4 derived peptide is used as substrate (amino acid sequence: […]N H2). Full-length PRMT5 enzyme (NCBI Reference sequence NP_006100.2) was co-expressed with His6-MEP50 in insect cells and purified via Nickel immobilized metal affinity and gel filtration chromatography (“the enzyme”).
The 6 μL assay reactions are run in Greiner brand black 384-well low volume plates. All reactions contained assay buffer (phosphate buffered saline, 0.01% (v/v) Tween-20, 0.01% (w/v) albumin from chicken egg white, 1 mM dithiothreitol, 200 nM peptide substrate, 1 μM S-Adenosyl methionine, and 15 ng/reaction enzyme, with the enzyme being omitted from negative control reactions. Compounds were added in a volume of 100 nL from dilution series prepared in DMSO, positive and negative control reactions receiving the same volume DMSO without compound. The plates were sealed with adhesive seals and incubated for 4 hours at 37° C. Reaction progress was measured using the Transcreener™ EPIGEN methyltransferase assay (BellBrook Labs, Madison, Wis.) as recommended by the manufacturer. To each reaction 2 μL detection mix were added, containing coupling enzymes, fluorescence polarisation tracer, and AMP antibody. […]

By UniProt entry, the sequences of proteins in these tests, tags left out.
UniProt O14744, whole entry: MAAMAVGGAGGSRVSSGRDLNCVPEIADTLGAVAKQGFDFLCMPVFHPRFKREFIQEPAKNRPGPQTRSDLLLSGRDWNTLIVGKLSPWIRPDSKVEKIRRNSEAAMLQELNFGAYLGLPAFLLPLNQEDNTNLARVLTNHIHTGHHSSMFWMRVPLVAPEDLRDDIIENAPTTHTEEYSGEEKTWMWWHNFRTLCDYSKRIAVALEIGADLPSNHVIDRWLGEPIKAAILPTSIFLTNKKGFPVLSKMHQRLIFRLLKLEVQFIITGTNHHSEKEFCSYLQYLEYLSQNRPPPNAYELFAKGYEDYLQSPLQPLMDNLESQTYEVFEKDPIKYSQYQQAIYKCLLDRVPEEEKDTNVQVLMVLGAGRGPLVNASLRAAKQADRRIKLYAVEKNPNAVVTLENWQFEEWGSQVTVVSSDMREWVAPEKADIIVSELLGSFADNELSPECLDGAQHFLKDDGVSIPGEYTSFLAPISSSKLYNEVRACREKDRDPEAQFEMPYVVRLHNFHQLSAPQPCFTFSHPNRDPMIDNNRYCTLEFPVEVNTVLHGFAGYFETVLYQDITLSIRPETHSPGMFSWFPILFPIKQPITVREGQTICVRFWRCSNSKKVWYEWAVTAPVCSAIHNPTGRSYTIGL

This passage reports IC50 results from patent US9856252B2, “2-(hetero)aryl-benzimidazole and imidazopyridine derivatives as inhibitors of asparagime emethyl transferase” (Cancer Therapeutics CRC Pty Ltd, priority 2013, dated 2018).

As a reminder, the IC50 is the midpoint of a concentration-inhibition curve.

In turn, `CCS(=O)(=O)N1CCN(c2ccc3nc(-c4ccc(OCc5ccccc5)c(-c5cn[nH]c5)c4)[nH]c3n2)CC1` [Example 73] registered an IC50 of 2010 nM.
